The test has as its target hsDHODH (Homo sapiens (Human), UniProt Q02127). In words: Activity test at enzyme level: DHODH inhibition, DCIP absorbance at 600 nm. The format is biochemical. Conditions: pharmaceutically acceptable esters (prodrugs of A and B series). As to the method:
Culture and Purification of hsDHODH Protein
The correctly sequenced recombinant plasmid pET-19b-DHODH was transformed into competent E. coli BL21 (DE3), and cultured on LB plate containing ampicillin. Colonies were randomly selected, inoculated into LB medium containing […], and incubate overnight at 37° C., 230 rpm. The cells were inoculated at a ratio of 1:200 in 500 mL of LB medium containing […] and expanded at 37° C., 230 rpm. When the OD value of the cells reached 0.8-1, IPTG was added into the medium to a final concentration of IPDG of 0.5 mM, and expression was induced overnight at 25° C. […]
Principles of activity test at enzyme level: firstly, dihydroorotate (DHO) is oxidatively dehydrogenated by DHODH to form orotic acid (Orotate, OA), accompanied by reduction of Flavin mononucleotide (FMN) into reduced flavin mononucleotide (FMNH2) by accepting 2H+ and 2e−, then coenzyme Q (CoQ) as hydrogen acceptor accepting electron and proton from FMNH2 is reduced into reduced coenzyme Q (CoQH2), reduced coenzyme Q transfers electrons to a chromogenic substrate, […] (DCIP), and finally DCIP was reduced. […] The degree to which the substrate DHO is oxidized can be judged based on the degree of decrease in absorbance. […]

Chains of the proteins cited; added tags and fusions are not shown. Lines headed by an entry give the natural chain unless they say otherwise; changes in a name come on top.
UniProt Q02127: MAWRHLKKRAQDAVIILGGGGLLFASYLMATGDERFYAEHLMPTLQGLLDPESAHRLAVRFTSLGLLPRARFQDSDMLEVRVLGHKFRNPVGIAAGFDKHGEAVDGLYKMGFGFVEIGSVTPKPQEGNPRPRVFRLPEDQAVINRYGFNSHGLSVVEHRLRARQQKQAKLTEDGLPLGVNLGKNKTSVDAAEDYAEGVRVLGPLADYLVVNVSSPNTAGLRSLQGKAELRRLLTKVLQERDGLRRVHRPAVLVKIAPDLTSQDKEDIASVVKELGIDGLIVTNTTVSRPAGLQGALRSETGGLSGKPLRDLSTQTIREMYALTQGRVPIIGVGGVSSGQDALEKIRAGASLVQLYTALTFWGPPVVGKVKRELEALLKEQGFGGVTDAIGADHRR

1 molecule from patent US10919869B2, “Thiazole derivative and applications” (EAST CHINA UNIVERSITY OF SCIENCE AND TECHNOLOGY, priority 2016, dated 2021) can be followed below.

What is called IC50 is the midpoint of a concentration-inhibition curve.

As to `CN(C)C(=O)c1ccccc1/C=N/N(C)c1nc(-c2ccccc2Cl)cs1` [Compound B12], the half-maximal inhibitory concentration (IC50) is over 50 µM.
